The text below walks through data of ChEMBL document CHEMBL5506043, “A β-Carboline Derivate PAD4 Inhibitor Reshapes Neutrophil Phenotype and Improves the Tumor Immune Microenvironment against Triple-Negative Breast Cancer” (J Med Chem, 2024).

The structures appear in SMILES notation.

The data set in a line: Clearance in male Sprague-Dawley rat at 3.5 mg/kg, iv by LC-MS/MS analysis. Type of data set: ADME, organism-based. Particulars: in vivo.

In turn, `CN(C)c1ccc2cc(C(=O)N[C@@H](CCCNC(=N)CCl)C(=O)NCc3ccccc3)ccc2c1` came in with a CL of 571.87 L/h/kg.
